Laboratory results taken from BindingDB's records for doi:10.1021/jm9804127 (Glaxo Wellcome Research and Development, 1999).

Biological target: T1, Peroxisome proliferator-activated receptor alpha (Homo sapiens, UniProt Q07869)
T1 sequence (Q07869 whole entry): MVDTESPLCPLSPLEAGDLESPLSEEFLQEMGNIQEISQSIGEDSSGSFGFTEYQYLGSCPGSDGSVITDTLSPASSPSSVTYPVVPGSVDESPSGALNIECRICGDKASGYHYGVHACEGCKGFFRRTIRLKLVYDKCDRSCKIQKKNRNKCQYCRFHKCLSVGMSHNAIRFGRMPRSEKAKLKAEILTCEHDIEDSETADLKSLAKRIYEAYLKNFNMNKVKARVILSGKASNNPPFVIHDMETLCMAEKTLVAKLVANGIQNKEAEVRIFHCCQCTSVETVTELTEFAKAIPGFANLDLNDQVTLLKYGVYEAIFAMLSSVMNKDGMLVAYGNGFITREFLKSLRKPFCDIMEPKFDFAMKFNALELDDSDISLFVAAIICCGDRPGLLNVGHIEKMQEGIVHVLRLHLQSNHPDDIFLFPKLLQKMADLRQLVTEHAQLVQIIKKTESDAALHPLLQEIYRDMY
Test: The compound was tested in vitro for inhibiting the 50% binding of Peroxisome proliferator activated receptor alpha

Ki: 6.31 µM
SMILES: Cc1oc(-c2ccccc2)nc1CCOc1ccc(C[C@H](Nc2ccccc2C(=O)c2ccccc2)C(=O)O)cc1 [2-(2-Benzoyl-phenylamino)-3-{4-[2-(5-methyl-2-phenyl-oxazol-4-yl)-ethoxy]-phenyl}-propionic acid(GI 262570)]
